Patent US11583575B2, “MHC-bound peptide arrays and methods of use thereof” (Roche Sequencing Solutions, Inc., priority 2016, dated 2023)

Legend:
MHCI = MHCI (Homo sapiens, UniProt P04439, D140Y/D185E/D98H/E176V/E277Q/G131W/G231S/I119V/I121R/I166T/I218V/N151K/N90K/P208A/P217A/Q86G/Q94H/R138H/R169H); test: On-array peptide-MHCI complex assembly of WT1 9-mer peptides, detected by labeled conformational antibody; format: binding; conditions: 440 peptides plotted, FIG. 2-5
Procedure: Typically, 630 μl of 10 mM Tris-HCl pH8.5 was mixed with 20 μl of 10% BSA in 20 mM Tris-HCl pH 7.8, 300 μg of 30 mg/ml solubilized b2m and 600 μg of 15-40 mg/ml solubilized alpha-chain in the indicated order at room temperature (RT). The control sample contained no b2m protein. Mixed samples were incubated at 4° C. overnight and centrifuged at 12,000×g for 4 min to remove precipitate. The supernatant was concentrated with an AmiconUltra 10K filter (Millipore) using two sample loads of approximately 400 μl and centrifuged at 12,000×g for 2 min each. The sample buffer was replaced with 10 mM Tris pH8.5 by addition of 350 μl 10 mM Tris-HCl pH 8.8 to the filter retained volume and concentrated by centrifugation at 12,000×g for 4 min. The buffer replacement procedure was repeated two more times using 350 μl 10 mM Tris-HCl pH 8.5 each time. […]
FIG. 2 provides a plot depicting a plurality of WT1 peptides, each 9 amino acids in length and each having a unique sequence along the wild type sequence of the WT1 protein, organized into quadrants based on either their signal intensity when bound to MHCI on a surface of the disclosure and detected by a labeled antibody, or their predicted binding affinity, as estimated by NetMHC 3.4. […]

ESK1 antibody = ESK1 antibody binding specificity to peptide-MHC assemblies for WT1 9mer peptides; conditions: FIG. 7
Text: Because the array of peptides on the surface is spatially-ordered, the sequence of every peptide is immediately known. Each amino acid of the 9 amino acid peptide was substituted for each of the 20 possible amino acids to identify those positions within this peptide that are essential for forming a proper peptide-MHCI complex. […] The amino acids A, F, I, L, M, V, W and P are nonpolar amino acids. The amino acids G, S, Y, C, Q, T, N are polar amino acids. The amino acids R, K and H are basic amino acids. The amino acids D and E are acidic amino acids.

## RMFPNAPYL [WT1 peptide126]
MHCI
  binding to MHCI on the surface (signal intensity, labeled antibody): demonstrated binding capacity to MHCI
ESK1 antibody
  ESK1 antibody binding specificity (relative fluorescence intensity): specific target
